Laboratory results as given in ChEMBL document CHEMBL1124268, “Approaches to protection against nerve agent poisoning. (Naphthylvinyl)pyridine derivatives as potential antidotes” (1988).

Assays:
Cavia porcellus = species: Cavia porcellus; assay: Selectivity ratio of I50 of AChE to I50 of CAT
[1] = molecular target: T1, Acetylcholinesterase (Rattus norvegicus) (UniProt P37136); assay: Effect on rate of aging of soman-inhibited acetylcholinetransferase (AChE) of rat erythrocyte lysate at 0.1 mM, ratio of control/treated
T1 sequence (whole entry): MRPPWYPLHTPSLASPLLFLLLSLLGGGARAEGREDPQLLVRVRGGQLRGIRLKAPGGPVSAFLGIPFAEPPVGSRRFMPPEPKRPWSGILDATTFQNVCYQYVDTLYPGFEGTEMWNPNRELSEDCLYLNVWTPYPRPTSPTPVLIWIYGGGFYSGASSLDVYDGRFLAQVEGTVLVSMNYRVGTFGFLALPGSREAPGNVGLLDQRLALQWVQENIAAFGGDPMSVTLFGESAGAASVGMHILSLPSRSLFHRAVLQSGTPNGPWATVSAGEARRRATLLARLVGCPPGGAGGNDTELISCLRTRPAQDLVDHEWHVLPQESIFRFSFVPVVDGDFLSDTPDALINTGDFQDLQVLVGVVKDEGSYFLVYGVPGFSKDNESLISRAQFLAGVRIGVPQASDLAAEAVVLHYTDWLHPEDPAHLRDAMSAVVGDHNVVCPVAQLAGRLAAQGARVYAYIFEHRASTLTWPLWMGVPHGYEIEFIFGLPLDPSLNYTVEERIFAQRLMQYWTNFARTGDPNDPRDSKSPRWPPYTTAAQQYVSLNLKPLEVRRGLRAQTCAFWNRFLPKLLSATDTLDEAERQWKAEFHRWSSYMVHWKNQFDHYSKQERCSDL

[2] = molecular target: T1, Acetylcholinesterase (Rattus norvegicus); assay: Inhibition of aging rate in soman-inhibited acetylcholinetransferase (AChE) assay of rat erythrocyte lysate at 1 mM
[3] = molecular target: T1, Acetylcholinesterase (Rattus norvegicus); assay: Effect on rate of aging of soman-inhibited acetylcholinetransferase (AChE) in rat erythrocyte lysate at 1 mM, ratio of control/treated
[4] = molecular target: T1, Acetylcholinesterase (Rattus norvegicus); assay: Effect on rate of aging of soman-inhibited acetylcholinetransferase (AChE) from rat erythrocyte lysate at 1 mM, ratio of control/treated
[5] = molecular target: T1, Acetylcholinesterase (Rattus norvegicus); assay: Inhibition of aging rate in soman-inhibited acetylcholinetransferase (AChE) assay in rat erythrocyte lysate at 1 mM, ratio of control/treated

Compound: C[N+]1(C)CC=C(/C=C/c2cccc3ccccc23)CC1
- Ratio (Cavia porcellus): < 0.9
- Ratio [1]: 1

Compound: CCCCCCN1CC=C(/C=C/c2cccc3ccccc23)CC1
- Ratio (Cavia porcellus): 1
- Ratio [1]: 1.1

Compound: CN1CCC(/C=C/c2cccc3ccccc23)CC1
- Ratio [2]: 1
- Ratio (Cavia porcellus): 0.2
- Ratio [1]: 0.9

Compound: C[n+]1ccc(NC(=O)Nc2cccc3ccccc23)cc1
- Ratio (Cavia porcellus): 0.3
- Ratio [1]: 1.1

Compound: COc1ccc2ccccc2c1/C=C/c1cc[n+](C)cc1
- Ratio (Cavia porcellus): 1.1
- Ratio [1]: 1.9

Compound: OCC[n+]1ccc(/C=C/c2cccc3ccccc23)cc1
- Ratio (Cavia porcellus): 56.7
- Ratio [1]: 1

Compound: CCCCCC[n+]1ccc(/C=C/c2cccc3ccccc23)cc1
- Ratio (Cavia porcellus): 7.6
- Ratio [1]: 1.2

Compound: COc1ccc(/C=C/c2cc[n+](CCO)cc2)c2ccccc12
- Ratio (Cavia porcellus): 1.6
- Ratio [1]: 1.6

Compound: COc1ccc(/C=C/c2cc[n+](C)cc2)c2ccccc12
- Ratio (Cavia porcellus): 0.2
- Ratio [1]: 3.4

Compound: COc1ccc(/C=C/c2cccc[n+]2C)c2ccccc12
- Ratio (Cavia porcellus): 0.3
- Ratio [1]: 1.3

Compound: CN1CCC(CCc2cccc3ccccc23)CC1
- Ratio (Cavia porcellus): 0.4
- Ratio [3]: 1.1

Compound: [O-][n+]1ccc(/C=C/c2cccc3ccccc23)cc1
- Ratio (Cavia porcellus): > 1.8
- Ratio [1]: 0.7

Compound: C[n+]1cccc(NC(=O)Nc2cccc3ccccc23)c1
- Ratio (Cavia porcellus): 0.4

Compound: CN1CC=C(/C=C/c2cccc3ccccc23)CC1
- Ratio (Cavia porcellus): 112

Compound: OCCN1CCC(CCc2cccc3ccccc23)CC1
- Ratio (Cavia porcellus): 0.9
- Ratio [4]: 1

Compound: C[n+]1ccc(/C=C/c2cccc3ccccc23)cc1
- Ratio (Cavia porcellus): 353
- Ratio [1]: 1.4

Compound: C[n+]1ccc(C#Cc2cccc3ccccc23)cc1
- Ratio [5]: 3.1
- Ratio (Cavia porcellus): 39
- Ratio [1]: 0.9

Compound: C[n+]1ccc(/C=C/c2c3ccccc3cc3ccccc23)cc1
- Ratio (Cavia porcellus): 0.2
- Ratio [1]: 1.6

Compound: COc1ccc(/C=C/c2cc[n+](C)cc2)cc1OC
- Ratio (Cavia porcellus): 1.8
- Ratio [1]: 1.6

Compound: C[n+]1ccc(/C=C/c2cc3ccccc3c3ccccc23)cc1
- Ratio (Cavia porcellus): 0
- Ratio [3]: 0.8

Compound: C[n+]1ccc(CCc2cccc3ccccc23)cc1
- Ratio (Cavia porcellus): 1.3
- Ratio [1]: 1

Compound: C[n+]1ccc(/C=C/c2ccc(OCc3ccccc3)cc2)cc1
- Ratio (Cavia porcellus): 0

Compound: C[n+]1ccc(/C=C/c2cccc3ccccc23)cc1N
- Ratio (Cavia porcellus): 6
- Ratio [3]: 1.9

Compound: C[n+]1ccccc1/C=C/c1cccc2ccccc12
- Ratio (Cavia porcellus): 29.1
- Ratio [1]: 1.5

Compound: CC(=O)Nc1cc(/C=C/c2cccc3ccccc23)cc[n+]1C
- Ratio (Cavia porcellus): 243
- Ratio [3]: 1.4

Compound: C[n+]1ccc(/C=C/c2ccc(Cl)c(Cl)c2)cc1
- Ratio (Cavia porcellus): 5.3
- Ratio [1]: 0.5

Compound: CN1CC=C(c2ccccc2)CC1
- Ratio (Cavia porcellus): 0.9

Compound: C[n+]1ccc(/C=C/c2ccccc2)cc1
- Ratio (Cavia porcellus): 100
- Ratio [3]: 2.6
